According to patent US9364501B2, “Chlorite in the treatment of neurodegenerative disease” (The Regents of the University of California, priority 2004, dated 2016):

What was measured:
[1] = tested on: blood T-cell subsets and CD14 monocytes of ALS patients
[2] = tested on: serum IgG and IgM
[3] = blood of ALS patients on medication, mean ± SD
[4] = ALS patients on medication, mean ± SD

Compound: Nc1nc2ccc(OC(F)(F)F)cc2s1 [riluzole]
- Macrophage activation status in treated ALS patients, in words ([1]; CD14 co-expression of HLA-DR, ALS/sALS patients on medication): not improved
- % CD4 [1, 3]: 46.10 ± 7.45%
- % CD4CD38 [1, 3]: 27.88 ± 10.76%
- % CD8 [1, 3]: 20.20 ± 7.69%
- % CD8CD38 [1, 3]: 13.20 ± 9.62%
- % CD14 [1, 3]: 2.28 ± 1.22%
- % CD14CD16 [1, 3]: 44.22 ± 12.91%
- CD14 SSC [1, 3]: 457.4 ± 153.2
- Med CD4CD38 (median CD38 fluorescence expressed on CD4 T-cell) [1, 3]: 12.76 ± 12.62
- Med CD8CD38 (median CD38 fluorescence expressed on CD8 T-cell) [1, 3]: 4.90 ± 8.55
- CD4/CD8 ([1]; blood of ALS patients on medication, riluzole 50 mg twice daily, NSAIDS standard dose, mean ± SD): 2.77 ± 1.54
- Serum-IgG [2, 4]: 7.90 ± 4.58 mg/mL
- Serum-IgM [2, 4]: 2.78 ± 3.03 mg/mL
- Serum-IgM levels, effect of therapy in words ([2]; ALS patients, treatment categories compared): no different from untreated patients
